Experimental data from patent publication EP0987250A1, “INDOLE DICARBOXYLIC ACID DERIVATIVES” (SHIONOGI & CO., LTD., priority 1997, dated 1998).

Target: T1, human sPLA2 (Homo sapiens, UniProt P14555)
T1 sequence (P14555 21-144): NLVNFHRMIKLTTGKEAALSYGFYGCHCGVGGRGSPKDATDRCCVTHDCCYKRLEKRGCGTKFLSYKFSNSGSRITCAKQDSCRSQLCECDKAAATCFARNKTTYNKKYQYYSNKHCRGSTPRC
Assay: In vitro test for sPLA2-inhibitory action by PC/DOC method
Type: biochemical
Conditions: PC/DOC = 1 mM/3 mM; Tris buffer 50 mM, pH 8.0; 40°C for 30 minutes; oleic acid measured by HPLC
Protocol: The inhibitory activity against sPLA2 (secretory PLA2) was determined according to the method of Schädlich, H. R., Büchler, M. et al. described in J. Clin. Chem, Chin. Biochem. 25: 505-609 (1987).
A 50 mM solution of 1-palmitoyl-1-oleoyl-sn-glycero-3-phosphatidylcholine in chloroform (PC) was used as a substrate. A 150 mM solution of sodium deoxycholate in methanol (DOC) was used as a surface-active agent
For each of test compounds (compounds (10) and (11)) were used 2 µl each of the substrate and the surface-active agent. First, the substrate and the surface-active agent were transferred into an Eppendorf tube and the solvent was evaporated by applying a nitrogen stream. Then, the tube was placed in a desiccator and evacuated with a pump to complete dryness. […]
To a test compound solution were added the substrate solution and the buffer solution for measurement prepared as described above and the resulting mixture was stirred to mix. […] HPLC analysis was carried out under the following analysis conditions: Column: Supersphere ^R60 RP-8 (Merck & Co.) Mobile: Phase: Acetonitrile : Distilled water (93:7) Detection: Absorbance at 254 nm
The inhibitory activity of the compound was calculated from the amount of oleic acid thus-measured. The sPLA2-inhibitory activity for each of the compounds was determined by the above-described method. […]

CCc1c(C(=O)C(N)=O)c2c(OCC(=O)O)cccc2n1Cc1ccccc1 [Compound 21, reference compound]
IC50: 13.6 nM
